Results reported in paper PMC11266173.

Target: TGEV PLpro (papain-like protease of transmissible gastroenteritis virus strain SC2021) (transmissible gastroenteritis virus (TGEV) strain SC2021)

Question: “Ubiquitin-AMC (from UniProt P0CG48 1-76)” was tested. Which Km of cleavage of Ub-AMC by TGEV PLpro (release of AMC, fluorescence Ex/Em 350/440, Michaelis-Menten, double reciprocal plot) did it give?
Answer: 28.9
